This test concerns the target T1, full-length JMJD5 (aa 1–416, JMJD5^FL) (Homo sapiens, UniProt Q8N371).
T1 construct: 10 µM full-length JMJD5 (aa 1–416); His6 (N); made in house; host or cells: Escherichia coli Rosetta2(DE3)-pLysS
T1 sequence (Q8N371 1-416): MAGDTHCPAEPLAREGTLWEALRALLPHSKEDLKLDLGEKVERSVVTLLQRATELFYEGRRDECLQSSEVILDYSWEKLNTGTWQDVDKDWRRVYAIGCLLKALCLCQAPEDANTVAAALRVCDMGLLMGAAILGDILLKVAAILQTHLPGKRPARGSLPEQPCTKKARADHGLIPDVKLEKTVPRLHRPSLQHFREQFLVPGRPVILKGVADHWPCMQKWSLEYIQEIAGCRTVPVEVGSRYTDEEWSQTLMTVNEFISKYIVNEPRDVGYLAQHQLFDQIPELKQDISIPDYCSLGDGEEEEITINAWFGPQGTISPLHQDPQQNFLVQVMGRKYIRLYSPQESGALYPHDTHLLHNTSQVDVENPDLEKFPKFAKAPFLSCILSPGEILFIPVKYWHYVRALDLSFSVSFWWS
Kind of test: JMJD5 inhibition assay by MALDI-TOF MS (hydroxylation of RpS6_129-144 peptide). It is filed as biochemical. The settings on record: 10 µM JMJD5^FL, 100 µM Fe(II), 400 µM ascorbate, 50 µM 2OG, 100 µM RpS6_129-144, inhibitor 0–10 mM; mean (n = 3) ± SD. An excerpt:
To explore inhibition involving orthosteric 2OG ligand binding in the JMJD5 2OG pocket, we initially screened a focused set of compounds comprising relatively close 2OG mimetics, tricarboxylic acid (TCA) cycle intermediates, hypoxia inducible factor (HIF) prolyl hydroxylase (PHD) inhibitors, and JmjC histone demethylase (KDM) inhibitors (Supplementary Fig. S1).
[…] Hydroxylation of RpS6 peptide was monitored by MALDI-TOF MS and intensity of hydroxylated peak was quantified to determine the extent of inhibition caused by inhibitor.

Molecules are shown by their SMILES.

One may read the IC50 as the concentration that gives 50% inhibition. Lower therefore signals higher potency. In the case of `O=C(O)CC(C(=O)O)C(O)C(=O)O` (stereo not shown) [Isocitrate], the IC50 is 1294 ± 2 µM.
